This is an account of results in patent US6026817A, “Method of treating the syndrome of coronary heart disease risk factors in humans” (priority 1998, dated 2000).

Sequences of proteins named here, by UniProt entry; tags and fusion partners are left off. A change or cut given only in a name is not applied to a line headed by its entry.
UniProt P41145: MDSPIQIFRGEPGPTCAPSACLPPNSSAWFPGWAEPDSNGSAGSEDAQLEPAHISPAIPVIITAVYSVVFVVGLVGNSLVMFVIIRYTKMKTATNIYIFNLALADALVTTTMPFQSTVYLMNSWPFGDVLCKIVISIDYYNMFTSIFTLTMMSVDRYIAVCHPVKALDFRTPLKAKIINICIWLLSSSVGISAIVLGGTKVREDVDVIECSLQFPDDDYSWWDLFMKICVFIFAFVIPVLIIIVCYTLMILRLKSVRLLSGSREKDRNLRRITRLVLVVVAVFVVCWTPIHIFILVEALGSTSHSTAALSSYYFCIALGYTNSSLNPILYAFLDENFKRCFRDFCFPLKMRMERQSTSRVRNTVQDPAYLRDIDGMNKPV

The term IC50 denotes the concentration needed to halve the response being measured.

The target in one assay is κ opioid receptor (Homo sapiens, UniProt P41145). The assay can be described thus: biochemical. The assay is classed as binding. The conditions noted are these: prototype ligand EKC. The source says: (§1) For each receptor there is a prototype ligand. […] For the μ receptor the prototype ligand is DHM (dihydromorphine). For the δ receptor, the prototype ligand is DADLE (D-Ala+D-Leu-Enkephalin), and for the κ receptor, the prototype ligand is EKC (ethylketocyclazocine).

The target in another assay is δ opioid receptor (Homo sapiens, UniProt P41143). The assay can be described thus: Receptor binding, displacement of prototype ligand DADLE.
Description: as §1

Each structure is given as a SMILES string.

Turning to `C=C1CC[C@@]2(O)[C@H]3Cc4ccc(O)c5c4[C@@]2(CCN3CC2CC2)[C@H]1O5` [Nalmefene, 6-desoxy-6-methylene-naltrexone], the IC50 against κ opioid receptor came out at 5 nM; at δ opioid receptor, 6 nM.
